The test addresses human P2Y1 receptor (Homo sapiens, UniProt P47900). The test can be described thus: Intracellular Ca2+ mobilization (FLIPR) in 1321N1 cells expressing P2Y1. The conditions noted are these: 1321 astrocytoma cells, n=3. It is filed as cell-based. The protocol:
Average Fluorescence Units (AFU) corresponding to peak height were captured on disk and exported for further analysis. Changes in fluorescence data corresponding to concentrations of intracellular Ca^2+ were normalized to the response of the cognate agonists (2MeSADP for P2Y1 receptor, ATP for P2Y2 receptor, UTP for P2Y4 receptor, UDP for P2Y6 receptor, and ATP for P2Y11 receptor).
Agonist potencies were calculated using a four-parameter logistic equation and the GraphPad software package (San Diego, Calif.). […] Three experiments using triplicate assays were conducted on separate days for each P2Y receptor subtype.

Sequences of proteins named here, by UniProt entry; tags and fusion partners are left off. A change or cut given only in a name is not applied to a line headed by its entry.
UniProt P47900: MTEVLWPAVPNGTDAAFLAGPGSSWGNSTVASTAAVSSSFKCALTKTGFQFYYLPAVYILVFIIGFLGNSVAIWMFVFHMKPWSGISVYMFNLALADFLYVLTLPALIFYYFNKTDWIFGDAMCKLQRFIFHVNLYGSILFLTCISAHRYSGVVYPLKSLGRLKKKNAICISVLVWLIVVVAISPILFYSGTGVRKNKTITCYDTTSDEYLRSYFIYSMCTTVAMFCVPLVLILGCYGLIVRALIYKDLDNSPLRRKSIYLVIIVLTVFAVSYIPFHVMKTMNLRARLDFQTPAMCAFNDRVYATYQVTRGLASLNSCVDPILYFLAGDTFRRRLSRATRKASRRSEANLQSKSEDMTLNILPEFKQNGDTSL

We go through 1 substance from patent US6696425B2, “Method of treating dry eye disease with purinergic receptor agonists” (Inspire Pharmaceuticals, Inc., priority 1997, dated 2004).

For Diadenosine diphosphate [Ap2A], the “pD2 for intracellular calcium mobilization, P2Y1 receptor” value is given as 5.24. Besides, where the note is “read-out: EC50 for intracellular calcium mobilization, P2Y1 receptor”, the 50% effective concentration (EC50) was 5.67 µM.
